The values that follow are results of earlier work, collected in PMC10121800.

Amino acid sequences for entries named in this document (tags omitted). A change or cut given only in a name is not applied to a line headed by its entry.
UniProt Q96P20, whole entry: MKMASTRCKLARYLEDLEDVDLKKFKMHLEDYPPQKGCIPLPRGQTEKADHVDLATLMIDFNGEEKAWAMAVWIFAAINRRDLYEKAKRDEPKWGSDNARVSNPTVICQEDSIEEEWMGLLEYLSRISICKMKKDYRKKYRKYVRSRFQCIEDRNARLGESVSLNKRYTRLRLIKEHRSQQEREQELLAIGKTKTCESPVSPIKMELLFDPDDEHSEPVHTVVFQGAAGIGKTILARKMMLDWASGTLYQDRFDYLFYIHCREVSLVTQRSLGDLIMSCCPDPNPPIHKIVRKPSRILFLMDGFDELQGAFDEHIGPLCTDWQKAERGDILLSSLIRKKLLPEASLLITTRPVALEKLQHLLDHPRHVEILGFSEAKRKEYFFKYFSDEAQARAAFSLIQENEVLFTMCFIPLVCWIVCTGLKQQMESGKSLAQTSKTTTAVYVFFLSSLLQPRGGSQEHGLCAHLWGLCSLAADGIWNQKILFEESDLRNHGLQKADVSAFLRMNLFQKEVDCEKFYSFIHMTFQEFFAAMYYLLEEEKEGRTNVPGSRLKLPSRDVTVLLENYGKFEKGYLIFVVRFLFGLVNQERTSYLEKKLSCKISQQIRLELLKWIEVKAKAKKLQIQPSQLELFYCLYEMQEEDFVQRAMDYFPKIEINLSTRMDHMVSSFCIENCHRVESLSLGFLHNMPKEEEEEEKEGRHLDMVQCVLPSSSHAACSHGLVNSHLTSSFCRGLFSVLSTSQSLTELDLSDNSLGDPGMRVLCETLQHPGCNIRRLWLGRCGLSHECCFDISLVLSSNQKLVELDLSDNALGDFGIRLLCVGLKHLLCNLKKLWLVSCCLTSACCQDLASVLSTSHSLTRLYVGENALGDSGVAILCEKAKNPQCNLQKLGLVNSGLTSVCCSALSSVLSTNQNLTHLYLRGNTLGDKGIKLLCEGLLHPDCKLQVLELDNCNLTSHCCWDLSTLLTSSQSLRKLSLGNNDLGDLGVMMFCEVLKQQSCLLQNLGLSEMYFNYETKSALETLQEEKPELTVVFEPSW
UniProt Q8TDX7: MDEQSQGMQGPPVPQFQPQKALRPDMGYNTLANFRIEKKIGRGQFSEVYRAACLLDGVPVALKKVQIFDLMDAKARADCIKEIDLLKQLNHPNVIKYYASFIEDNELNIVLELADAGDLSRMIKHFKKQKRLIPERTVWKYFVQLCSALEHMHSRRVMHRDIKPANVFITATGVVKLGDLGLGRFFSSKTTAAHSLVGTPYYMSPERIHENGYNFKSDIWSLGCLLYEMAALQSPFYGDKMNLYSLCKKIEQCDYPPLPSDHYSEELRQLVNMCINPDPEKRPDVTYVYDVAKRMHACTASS

As a reminder, the Kd is the equilibrium constant for the complex coming apart.

The target in this series is NLRP3 (Homo sapiens) (UniProt Q96P20).

NEK7 (from UniProt Q8TDX7): the dissociation constant Kd is 78.9 nM.
